In general, inhibition refers to the relative decrease from the control value, in per cent.

The chains behind the UniProt entries cited, without tags or fusion partners. Residues count along the entry.
UniProt P78536, 215-824 limits assumed: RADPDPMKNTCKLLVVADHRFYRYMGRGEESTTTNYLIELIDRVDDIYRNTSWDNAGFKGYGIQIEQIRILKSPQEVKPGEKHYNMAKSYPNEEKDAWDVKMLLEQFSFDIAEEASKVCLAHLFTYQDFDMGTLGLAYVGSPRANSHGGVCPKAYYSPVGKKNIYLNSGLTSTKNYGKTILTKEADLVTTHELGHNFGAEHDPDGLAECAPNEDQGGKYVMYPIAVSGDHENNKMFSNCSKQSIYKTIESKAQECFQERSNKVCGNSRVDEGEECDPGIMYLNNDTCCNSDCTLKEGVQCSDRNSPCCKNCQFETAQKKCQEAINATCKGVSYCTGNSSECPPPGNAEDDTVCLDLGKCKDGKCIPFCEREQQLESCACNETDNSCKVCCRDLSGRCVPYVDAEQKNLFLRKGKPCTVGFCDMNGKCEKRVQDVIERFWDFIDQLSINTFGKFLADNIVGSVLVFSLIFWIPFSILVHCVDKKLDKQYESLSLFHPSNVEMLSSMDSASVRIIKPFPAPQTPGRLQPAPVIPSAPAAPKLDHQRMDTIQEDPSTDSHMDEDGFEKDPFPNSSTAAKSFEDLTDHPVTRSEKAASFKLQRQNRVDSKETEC

Only a part is listed here, and it is no random draw. Some salts or complexes appear as unconnected parts, following the source record. The source made the active and inactive calls.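 Rule for the calls: active = inhibition above the mean of compounds lying between control limits plus 3 SD, set per campaign (cut at about 8.5% in these data); inactive = the rest.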

The target in the assay is Disintegrin and metalloproteinase domain-containing protein 17 (Homo sapiens) (UniProt P78536). The assay can be described thus: inhibition of ADAM17 peptide cleavage – biochemical, QFRET, primary screen (AID 720648).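 Note: 0% = DMSO-only wells as the low control.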 To be noted: recombinant ADAM17, EDANS/DABCYL FRET peptide cleavage; at 6.95 µM; stronger effect = higher value.
For the compound `CP(=S)(Nn1cnnc1)Oc1ccccc1` (centres undefined), the inhibition is inactive: -0.47%.

For `CP(=O)(Nc1ccccc1Br)Oc1ccccc1` (centres undefined), the inhibition is inactive: -3.26%.

`COc1ccccc1OP(C)(=O)Nc1ccccc1` (centres undefined): the inhibition was inactive: -5.17%.

`O=[N+]([O-])c1cc([N+](=O)[O-])c(O)c([N+](=O)[O-])c1.c1ccc(Oc2ccncc2)cc1`: the inhibition is inactive: 5.19%.

In the case of `CCOC(=O)c1ccc(NP(C)(=O)Oc2ccc(OC)cc2)cc1` (centres undefined), the inhibition was inactive: -0.57%.

As for `CCOP(C)(=S)SCC(=O)NC(C)C(=O)O` (centres undefined), the inhibition was inactive: -0.4%.

On to `CP(=O)(Nc1ccccn1)Oc1ccc(Cl)cc1` (centres undefined), for which the inhibition was inactive: -4.3%.

For `CP(=O)(Nc1ccc(SC(F)(F)F)cc1)Oc1ccc(Cl)cc1` (centres undefined), the inhibition was inactive: -0.19%.

Consider `Cc1cccc(C)c1OP(C)(=O)Nc1ccc(SC(F)(F)F)cc1` (centres undefined), for which the inhibition is inactive: -24.5%.

As for `CP(=O)(Oc1ccccc1)OC(c1ccccc1)C(F)(F)F` (centres undefined), the inhibition is inactive: -0.92%.

Consider `CCc1ccc(OP(C)(=O)N2CCN(c3ccc([N+](=O)[O-])cc3)CC2)cc1` (centres undefined), for which the inhibition was inactive: 0.33%.

Turning to `CP(=O)(NC(=O)Nc1ccccc1)Oc1ccccc1` (centres undefined), the inhibition is inactive: -2.34%.

As to `Cc1cc(C)cc(OP(C)(=O)Nc2ccc(SC(F)(F)F)cc2)c1` (centres undefined), the inhibition is inactive: -2.39%.

In the case of `COc1ccccc1-c1ccccn1.O=[N+]([O-])c1cc([N+](=O)[O-])c(O)c([N+](=O)[O-])c1`, the inhibition was inactive: -2.24%.

Consider `CCN(CC)CCCOC(=O)C(O)(c1ccccc1)c1ccccc1`, for which the inhibition is inactive: -5.02%.

In the case of `COc1ccccc1OP(C)(=O)Nc1ccc(C)cc1` (centres undefined), the inhibition was inactive: 3.02%.

With `Cc1ccc(NP(C)(=O)Oc2ccccc2)c(C)c1` (centres undefined), the inhibition was inactive: -3.45%.

As for `CCOC(=O)c1ccc(NP(C)(=O)Oc2ccccc2)cc1` (centres undefined), the inhibition is inactive: -5.62%.

For `Cc1cc(C)cc(OP(C)(N)=O)c1` (centres undefined), the inhibition was inactive: 3.27%.

As for `COc1ccccc1OP(C)(=O)Nc1cc(Cl)ccc1C` (centres undefined), the inhibition is inactive: 0.22%.

With `COc1ccc(OP(C)(=O)Nc2cccc(F)c2)cc1` (centres undefined), the inhibition is inactive: -5.38%.

With `O=[N+]([O-])c1cc([N+](=O)[O-])c(Nc2cccnc2)c([N+](=O)[O-])c1`, the inhibition was inactive: 1.46%.

`O=[N+]([O-])c1ccc2c(c1)C=Nc1ccccc1O2`: the inhibition is inactive: 1.24%.

`CC(C)(C)c1ccc(OP(C)(=O)Nc2ccc(SC(F)(F)F)cc2)cc1` (centres undefined): the inhibition was inactive: -0.43%.

Consider `Cc1cccc(C)c1OP(C)(N)=O` (centres undefined), for which the inhibition is inactive: -0.65%.

As to `CC1=NCCc2c1[nH]c1ccccc21.O=[N+]([O-])c1cc([N+](=O)[O-])c(O)c([N+](=O)[O-])c1`, the inhibition is inactive: -11.8%.

On to `O=C(O)c1cccc(Nc2c([N+](=O)[O-])cc([N+](=O)[O-])cc2[N+](=O)[O-])c1`, for which the inhibition was inactive: 1.13%.

`Cc1ccc(C)c(NP(C)(=O)Oc2ccccc2)c1` (centres undefined): the inhibition was inactive: -1.05%.

As for `CP(=O)(Nc1cccc(Br)c1)Oc1ccccc1` (centres undefined), the inhibition was inactive: 2.32%.

Turning to `Cc1cc(C)cc(OP(C)(=O)Nc2ccccn2)c1` (centres undefined), the inhibition was inactive: -2.85%.

On to `COc1ccccc1OP(C)(=O)Nc1cccc(Br)c1` (centres undefined), for which the inhibition was inactive: -0.56%.

Take `CCOC(=O)c1ccc(NP(C)(=O)Oc2cc(C)cc(C)c2)cc1` (centres undefined): the inhibition is inactive: 3.63%.

As for `Cc1cc(C)cc(OP(C)(=O)Nc2ccc(C)cc2C)c1` (centres undefined), the inhibition was inactive: 2.57%.

For the compound `O=[N+]([O-])c1cc([N+](=O)[O-])c(-c2cnn(-c3ccccc3)c2)c([N+](=O)[O-])c1`, the inhibition is inactive: 1.46%.

For `Cc1nc2ccc3ccccc3c2s1.O=[N+]([O-])c1cc([N+](=O)[O-])c(O)c([N+](=O)[O-])c1`, the inhibition was active: 9.22%.

In the case of `O=[N+]([O-])c1cc([N+](=O)[O-])c(-n2nnc3ccccc32)c([N+](=O)[O-])c1`, the inhibition is inactive: -0.13%.

Consider `CN(Cc1cccnc1)C(=O)COc1ccc(Cl)c(Cl)c1.O=[N+]([O-])c1cc([N+](=O)[O-])c(O)c([N+](=O)[O-])c1`, for which the inhibition was inactive: -2.95%.

Regarding `CN1CCCCC1COC(=O)C1(O)c2ccccc2CCc2ccccc21` (centres undefined), the inhibition was inactive: -1.5%.

On to `COc1ccccc1OP(C)(=O)Nc1c(C)cccc1C` (centres undefined), for which the inhibition was inactive: -2.17%.

Regarding `COc1ccc(-c2ccccn2)cc1.O=[N+]([O-])c1cc([N+](=O)[O-])c(O)c([N+](=O)[O-])c1`, the inhibition was inactive: 1.77%.

Consider `CP(=O)(Nc1ccc(SC(F)(F)F)cc1)Oc1ccccc1` (centres undefined), for which the inhibition is inactive: 2.69%.

On to `CCCOc1ccc(NP(C)(=O)Oc2ccc(Cl)cc2)cc1` (centres undefined), for which the inhibition is inactive: -1.62%.

Consider `O=[N+]([O-])c1cc([N+](=O)[O-])c(Nc2nnnn2CCO)c([N+](=O)[O-])c1`, for which the inhibition is inactive: 3.66%.

Take `CCOC(=O)C(CC)C1=NC(C)(C)Cc2ccccc21.O=[N+]([O-])c1cc([N+](=O)[O-])c(O)c([N+](=O)[O-])c1` (centres undefined): the inhibition was inactive: -0.85%.

On to `O=[N+]([O-])c1ccc(OP2(=O)COCCO2)cc1` (centres undefined), for which the inhibition was inactive: 0.38%.

For the compound `Cc1cc(-c2cccc3ccccc23)c(C)cn1.O=[N+]([O-])c1cc([N+](=O)[O-])c(O)c([N+](=O)[O-])c1`, the inhibition is inactive: 1.66%.

As to `O=[N+]([O-])c1cc([N+](=O)[O-])c(NCC2CCS(=O)(=O)C2)c([N+](=O)[O-])c1` (centres undefined), the inhibition was inactive: -2.69%.

As to `Cc1c(C(c2ccc3c(c2)OCO3)c2c(C)n(C)n(-c3ccccc3)c2=O)c(=O)n(-c2ccccc2)n1C.O=[N+]([O-])c1cc([N+](=O)[O-])c(O)c([N+](=O)[O-])c1`, the inhibition was inactive: -7.9%.

As for `COc1ccc(OP(C)(=O)Nc2cccc(Br)c2)cc1` (centres undefined), the inhibition is inactive: 2.68%.

With `CN(C)CCOC(=O)C(O)(c1ccccc1)C1CCCCC1` (centres undefined), the inhibition is inactive: 3.28%.

Turning to `COc1ccc(NP(C)(=O)Oc2ccccc2OC)cc1` (centres undefined), the inhibition was inactive: 1.41%.

As to `CP(=O)(Nc1ccc2c(c1)OCCO2)Oc1ccccc1` (centres undefined), the inhibition was inactive: -3.25%.

On to `Cc1ccccc1NP(C)(=O)Nc1ccccc1C`, for which the inhibition was inactive: 0.58%.

Turning to `O=[N+]([O-])c1cc([N+](=O)[O-])c(C(F)(F)F)c([N+](=O)[O-])c1O`, the inhibition is inactive: 1.64%.

With `CP(=O)(Nc1ccc(SC(F)(F)F)cc1)Oc1ccc(F)cc1` (centres undefined), the inhibition is inactive: 6.32%.

For `CCOP(C)(=S)SCC(=O)NC(C)(CC)C(=O)O` (centres undefined), the inhibition was inactive: -3.63%.

With `CCOP(=O)(CC)OCC`, the inhibition is inactive: -6.28%.

Consider `O=C(OC1CN2CCC1CC2)c1ccc([N+](=O)[O-])cc1` (centres undefined), for which the inhibition was inactive: 1.58%.

With `O=C(OCCN1CCN(CCOCc2ccccc2)CC1)C(O)(c1ccccc1)c1ccccc1`, the inhibition was inactive: 2.09%.

In the case of `COc1ccc2c(c1O)-c1c(O)c(OC)cc3c1[C@H](C2)[N+](C)(C)CC3.O=[N+]([O-])c1cc([N+](=O)[O-])c([O-])c([N+](=O)[O-])c1[O-]`, the inhibition is inactive: -154%.

On to `O=[N+]([O-])c1cc([N+](=O)[O-])c(Nc2ccc(Cl)cc2)c([N+](=O)[O-])c1`, for which the inhibition was inactive: 6.69%.

For the compound `CP(=O)(Nc1ccccc1F)Oc1ccccc1` (centres undefined), the inhibition is inactive: -2.98%.

As to `CC(C)c1ccc(OP(C)(=O)Nc2ccc(SC(F)(F)F)cc2)cc1` (centres undefined), the inhibition was inactive: 5.46%.

Take `Cc1c([N+](=O)[O-])cc([N+](=O)[O-])c(Br)c1[N+](=O)[O-]`: the inhibition was inactive: 4.89%.

As to `CCN(CC)CCCOC(=O)C(O)(c1ccccc1)C1CCCCC1` (centres undefined), the inhibition was inactive: 0.9%.

On to `CP(=O)(Nc1ccccc1)Oc1ccc(F)cc1` (centres undefined), for which the inhibition is inactive: -2.89%.

Take `O=[N+]([O-])c1cc([N+](=O)[O-])c(OC2CCCCC2O)c([N+](=O)[O-])c1` (centres undefined): the inhibition is inactive: -4.24%.

For the compound `CCCCCOc1ccc(NP(C)(=O)Oc2ccc(Cl)cc2Cl)cc1` (centres undefined), the inhibition is inactive: 1.89%.

Regarding `CCN(CC)CCCNc1ccccc1[N+](=O)[O-].O=[N+]([O-])c1cc([N+](=O)[O-])c(O)c([N+](=O)[O-])c1`, the inhibition is inactive: 2.24%.

Turning to `CCOC(=O)c1ccc(NP(C)(=O)Oc2ccc(F)cc2)cc1` (centres undefined), the inhibition was inactive: -3.45%.

`COc1ccc(OP(C)(=O)Nc2ccc(SC(F)(F)F)cc2)cc1` (centres undefined): the inhibition was inactive: 4.83%.

Turning to `CP(=O)(OCCOc1ccccc1)OCCOc1ccccc1`, the inhibition is inactive: 1.61%.

As for `CP(=O)(Nc1ccc(Cl)cc1Cl)Oc1ccccc1` (centres undefined), the inhibition was inactive: -8.1%.

For the compound `CCCCCCCCCCCCCCCC1C[N+](C)(C)CCOP(C)(=O)O1` (centres undefined), the inhibition was inactive: 0.47%.

With `O=C1C(O)=C([N+](=O)[O-])C(=O)C(O)=C1[N+](=O)[O-]`, the inhibition was inactive: -4.62%.

For `Cc1cc(C)cc(OP(C)(=O)Nc2cccc(C(F)(F)F)c2)c1` (centres undefined), the inhibition was inactive: 0.5%.

Consider `COc1ccccc1OP(C)(=O)Nc1ccc(C)c(C)c1` (centres undefined), for which the inhibition is inactive: -7.16%.

With `COc1ccc(OP(C)(=O)Nc2ccccc2Br)cc1` (centres undefined), the inhibition was inactive: -3.32%.

As for `O=[N+]([O-])c1cc([N+](=O)[O-])c(Nc2ccccn2)c([N+](=O)[O-])c1`, the inhibition is inactive: 1.67%.

Turning to `Cc1c(NP(C)(=O)Oc2ccc(C(C)C)cc2)c(=O)n(-c2ccccc2)n1C` (centres undefined), the inhibition was inactive: -2.52%.

Turning to `CP(=O)(Nc1ccccn1)Oc1ccccc1` (centres undefined), the inhibition is inactive: -2.49%.

For `COc1ccccc1OP(C)(=O)Nc1ccc(C)cc1C` (centres undefined), the inhibition is inactive: -8.31%.

With `CCc1ccc(OP(C)(=O)O)cc1`, the inhibition was inactive: -0.3%.

For `COc1ccccc1OP(C)(=O)Nc1ccc(Br)cc1` (centres undefined), the inhibition was inactive: -3.97%.

With `COc1ccc(OP(C)(=O)Nc2ccccn2)cc1` (centres undefined), the inhibition is inactive: -1.3%.

As to `CN(C)CCOC(=O)C(O)(c1ccccc1)C1CCCC1` (centres undefined), the inhibition is inactive: 0.61%.

In the case of `CC(C)(C)c1ccc(OP(C)(=O)O)cc1`, the inhibition is inactive: -1.11%.

As for `COc1ccccc1OP(C)(=O)Nc1ccccc1Br` (centres undefined), the inhibition was inactive: 0.92%.

With `CP(=O)(Nc1ccc(Cl)cc1)Oc1ccc(F)cc1` (centres undefined), the inhibition is inactive: -2.73%.

Turning to `CN(C)C(=O)c1c([N+](=O)[O-])cc([N+](=O)[O-])cc1[N+](=O)[O-]`, the inhibition is inactive: -0.36%.

On to `CCN(CC)CC(O)COC(=O)C(O)(c1ccccc1)C1CCCCC1` (centres undefined), for which the inhibition is inactive: -1.76%.

Consider `COc1ccc(OP(C)(=O)Nc2ccc(Br)cc2)cc1` (centres undefined), for which the inhibition is inactive: 0.29%.

Take `COc1ccccc1OP(C)(=O)Nc1c(C)n(C)n(-c2ccccc2)c1=O` (centres undefined): the inhibition was inactive: -4.46%.

Regarding `O=C(OCCCN1CCCC1)C(O)(c1ccccc1)C1CCCCC1` (centres undefined), the inhibition was inactive: -5.28%.

`CP(=O)(Oc1ccccc1)N1CCOC1=O` (centres undefined): the inhibition was inactive: -0.17%.

As to `CCc1ccc(OP(C)(=O)Nc2cccnc2)cc1` (centres undefined), the inhibition is inactive: -6.01%.

As for `Nc1ccc2c(ccc3cccnc32)n1.O=[N+]([O-])c1cc([N+](=O)[O-])c(O)c([N+](=O)[O-])c1`, the inhibition was inactive: -61.6%.

For `CCOC(=O)c1ccc(NP(C)(=O)Oc2ccc(Cl)cc2)cc1` (centres undefined), the inhibition was inactive: 7.37%.

Turning to `CP(=O)(OC12CC3CC(CC(C3)C1)C2)OC12CC3CC(CC(C3)C1)C2`, the inhibition is inactive: -2.57%.

The values above are taken from PubChem BioAssay AID720648 (The Scripps Research Institute Molecular Screening Center, 2013).
